Values of other authors in US4745109A, “Suicide inhibitors of aromatase” (Washington Research Foundation, priority 1984, dated 1988).

Test system: aromatase
Details: cited from earlier work

## CCC1(c2ccc(N)cc2)CCC(=O)NC1=O (stereo not shown) [aminoglutethimide]
  specificity to aromatase: not specific to aromatase
